“Also recorded” adds a separate entry of the source. Like-named read-outs stand apart in the source and are kept apart here.
How the values were obtained:
[1] = molecular target: central muscarinic receptors (M1) (Rattus norvegicus, UniProt P08482); assay type: binding; details: [^3 H]-PNZ versus [^3 H]-QNB displacement
[2] = system: central muscarinic receptors (M1 and M2); assay type: binding, rat; details: vs AF 30 (cis)
[3] = assay type: in vivo, Male Sprague-Dawley rats
[4] = assay type: in vivo, Sprague Dawley rats; details: LD50 divided by dose used in Radial Arm Maze (ip)
[5] = system: high-affinity choline transport; assay: High-affinity choline transport (from rat brain synoptosomes); assay type: biochemical
[6] = system: choline acetyltranferase; assay: Choline acetyltranferase activity (from rat brain homogenates); assay type: biochemical

Amino acid sequences for entries named in this document (tags omitted). A change or cut given only in a name is not applied to a line headed by its entry.
UniProt P08482: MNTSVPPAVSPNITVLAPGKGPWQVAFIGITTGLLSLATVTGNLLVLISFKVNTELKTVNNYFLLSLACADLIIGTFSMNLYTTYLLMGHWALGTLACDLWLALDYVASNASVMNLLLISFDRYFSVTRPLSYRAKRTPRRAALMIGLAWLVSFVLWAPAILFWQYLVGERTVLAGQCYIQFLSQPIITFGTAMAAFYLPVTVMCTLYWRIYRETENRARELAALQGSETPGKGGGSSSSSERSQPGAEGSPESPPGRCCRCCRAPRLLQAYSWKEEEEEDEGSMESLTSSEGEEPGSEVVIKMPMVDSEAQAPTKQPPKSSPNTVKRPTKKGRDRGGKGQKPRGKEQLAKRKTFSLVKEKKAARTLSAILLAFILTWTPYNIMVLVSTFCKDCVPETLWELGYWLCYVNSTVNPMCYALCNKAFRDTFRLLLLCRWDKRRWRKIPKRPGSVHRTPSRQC

Q: Which M1 selectivity [1] does the source give for C[C@H]1O[C@]2(CS1)CN1CCC2CC1 (relative stereo) [AF102B] here?
A: more selective for M1 receptors by one order of magnitude than the rest of the tested compounds; also recorded: selective M1 agonist; also recorded: specific centrally active muscarinic M1-type agonist

Q: And the “relative potency in [^3 H]-QNB displacement” value [2]?
A: approximately twice as potent as AF 30 (cis)

Q: And the “ratio of side-effect dose (analgesia, hypothermia) to dose reversing AF64A-induced memory impairments” value ([3]; i.p.)?
A: 15-150 times

Q: And the Therapeutic index ([3]; ip)?
A: 78-780

Q: What about the “ratio of side-effect dose (analgesia, hypothermia) to dose reversing AF64A-induced memory impairments” value ([3]; p.o.) of the same compound?
A: ≥ 40 times

Q: And the Therapeutic index [4]?
A: 15

Q: And the “activity on high-affinity choline transport” value [5]?
A: lack of any significant activity

Q: And the “activity on choline acetyltranferase” value [6]?
A: lack of any significant activity

From US4855290A (priority 1985, dated 1989)
